In patent publication US20240377408A1:

What was measured:
Assay in all cases: cell-based or functional assay
M64-EAEIR = target: M64-EAEIR
M64-LAEIR = target: M64-LAEIR
M64-DAEIR = target: M64-DAEIR
M64-AAEIR = target: M64-AAEIR
M64-FAEIR = target: M64-FAEIR

Q: Which results are given for “Carbonic anhydrase II, Homo sapiens (scaffold) (from UniProt P00918 4-259) (enzyme)”?
A: IC50 values (µM), colorimetric pNPA hydrolysis inhibition assay (M64-EAEIR): 0.63 µM; IC50 values (µM), colorimetric pNPA hydrolysis inhibition assay (M64-LAEIR): 0.028 µM; IC50 values (µM), colorimetric pNPA hydrolysis inhibition assay (M64-DAEIR): 0.089 µM; IC50 values (µM), colorimetric pNPA hydrolysis inhibition assay (M64-AAEIR): 0.02 µM; IC50 values (µM), colorimetric pNPA hydrolysis inhibition assay (M64-FAEIR): 0.018 µM
